{
  "sequences": {"note": "The chains behind the UniProt entries cited, without tags or fusion partners. Where a name states a change or a piece, a line headed by the entry shows the natural chain unless it says otherwise.", "UniProt P20813": "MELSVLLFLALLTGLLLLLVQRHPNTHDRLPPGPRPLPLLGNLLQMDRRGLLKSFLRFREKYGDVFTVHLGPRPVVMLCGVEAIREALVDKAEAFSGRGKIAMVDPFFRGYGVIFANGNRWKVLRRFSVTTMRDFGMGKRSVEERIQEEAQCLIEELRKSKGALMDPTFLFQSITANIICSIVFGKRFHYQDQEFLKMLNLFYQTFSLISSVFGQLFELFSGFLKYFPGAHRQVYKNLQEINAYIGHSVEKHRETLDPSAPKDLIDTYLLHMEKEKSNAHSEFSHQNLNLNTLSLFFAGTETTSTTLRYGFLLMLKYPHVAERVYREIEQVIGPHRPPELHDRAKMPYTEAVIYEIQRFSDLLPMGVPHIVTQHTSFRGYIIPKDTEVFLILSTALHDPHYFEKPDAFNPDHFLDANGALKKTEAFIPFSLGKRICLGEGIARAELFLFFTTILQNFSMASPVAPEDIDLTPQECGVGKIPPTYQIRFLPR"},
  "source": "paper PMC10615923",
  "key": {"HLM": {"test_system": "HLM", "assay": "TATP hydroxylation (TATP-OH formation) in HLM with chemical inhibitors or heat", "conditions": "inhibitor preincubated in HLM for 30 min (1-ABT 1 mM, MMI 500 µM, TIC 100 µM), substrate TATP 100 µM, no inhibitor = 100%"}, "[1]": {"assay": "Urine analysis of laboratory workers exposed to TATP vapor", "conditions": "three volunteers"}, "FMO": {"test_system": "FMO", "assay": "Benzydamine N-oxidation (FMO probe) in HLM with chemical inhibitors or heat", "conditions": "HLM preheated for 5 min at 45 ℃; 37 ℃ = 100%"}, "CYP2B6": {"biological_target": "CYP2B6 (Homo sapiens, UniProt P20813)", "conditions": "HLM preheated for 5 min at 45 ℃; 37 ℃ = 100%"}},
  "data": [
    {"compound": "Cn1cc[nH]c1=S", "values": [
      {"measurement": "TATP-OH formation in 15 min, percent found", "setting": "HLM", "result": "34 ± 2", "unit": "%"}
    ]},
    {"compound": "CC1(C)OOC(C)(C)OOC(C)(COC2OC(C(=O)O)C(O)C(O)C2O)OO1", "note": "(stereo not drawn)", "values": [
      {"measurement": "Volunteers still showing the metabolite in urine collected the next day", "setting": "[1]", "result": "Two out of the three volunteers"}
    ]},
    {"compound": "benzydamine N-oxide", "values": [
      {"measurement": "BZD-NO formation in 15 min, percent found", "setting": "FMO", "result": "44 ± 2", "unit": "%"}
    ]},
    {"compound": "Nn1nnc2ccccc21", "values": [
      {"measurement": "TATP-OH formation in 15 min, percent found", "setting": "HLM", "result": "3.6 ± 0.7", "unit": "%"},
      {"measurement": "TATP-OH formation in 15 min, percent found", "setting": "HLM; listed as 1-aminobenzotriazole", "result": 3.6, "unit": "%"}
    ]},
    {"compound": "hydroxybupropion", "values": [
      {"measurement": "BUP-OH formation in 15 min, percent found", "setting": "CYP2B6", "result": "99 ± 2", "unit": "%"}
    ]},
    {"compound": "Clc1ccccc1CN1CCc2sccc2C1", "values": [
      {"measurement": "TATP-OH formation in 15 min, percent found", "setting": "HLM", "result": "4.8 ± 0.7", "unit": "%"}
    ]},
    {"compound": "CC(NC(C)(C)C)C(=O)c1cccc(Cl)c1", "note": "(stereo not drawn)", "values": [
      {"measurement": "TATP-OH formation in 15 min, percent found", "setting": "HLM", "result": "125 ± 21", "unit": "%"},
      {"measurement": "TATP-OH formation in 15 min, percent found", "setting": "HLM; listed as bupropion", "result": 125, "unit": "%"}
    ]}
  ]
}
